{"source": "paper PMC10906223", "about": "“An orally available compound suppresses glucagon hypersecretion and normalizes hyperglycemia in type 1 diabetes” (JCI Insight, 2024)", "assay": "Microsomal stability assay, CD-1 mouse liver microsomes", "format": "in vitro ADME", "procedure": "A total of 445 μL of the working solution was transferred into prewarmed incubation plates for treated (T60) and control (NCF60) measurements. After preincubation (10 minutes at 37°C with constant shaking), 54 μL was transferred to the blank plate, followed by 6 μL of NADPH and 180 μL quenching solution. In parallel, 5 μL of WCDD301 (100 μM) was added into incubation plates (T60 and NCF60) containing microsomes and mixed thoroughly (3 times). For the NCF60 plate, 50 μL of buffer was added, mixed (thoroughly, 3 times), shaken, and incubated at 37°C for 60 minutes. In the quenching plate T0, quenching solution (180 μL) and NADPH cofactor (6 μL) were added. For T60 plate, 54 μL of the mixture was placed into the quenching plate (for T0 point), followed by adding 44 μL NADPH cofactor with shaking incubation at 37°C for 60 minutes. Quenching solution (180 μL) was added to quenching plates at 5, 15, 30, 45, and 60 minutes, and 60 μL of sample was transferred from T60 plate per time point to the quenching plates. For the NCF60 plates, 60 μL sample from the NCF60 incubation plate was transferred to the quenching plate (containing quenching solution) at the 60-minute time point. After plates were shaken for 10 minutes and centrifuged (1,750g, 20 minutes at 4°C), 80 μL of the supernatant was transferred into 240 μL HPLC water for LC-MS/MS analysis. […]"}
{"molecule": "O=C(O)Cc1ccccc1Nc1c(Cl)cccc1Cl", "note": "[Diclofenac]", "values": [{"measurement": "Intrinsic microsomal clearance", "result": 29.2, "unit": "µL/min/mg"}]}
